Our source for the EC50 values is patent publication US7192924B2, “Corticotropin releasing factor 2 receptor agonists” (priority 2002, dated 2007).

Structures are written as SMILES. pEC50: −log10 of the molar value. Where two headings read alike, the source gives them in different places. Where only a bound is given, the exact number is not on record here.

One test concerns the target T1, CRF2R (Homo sapiens, UniProt Q13324).
T1 sequence (Q13324 1-411): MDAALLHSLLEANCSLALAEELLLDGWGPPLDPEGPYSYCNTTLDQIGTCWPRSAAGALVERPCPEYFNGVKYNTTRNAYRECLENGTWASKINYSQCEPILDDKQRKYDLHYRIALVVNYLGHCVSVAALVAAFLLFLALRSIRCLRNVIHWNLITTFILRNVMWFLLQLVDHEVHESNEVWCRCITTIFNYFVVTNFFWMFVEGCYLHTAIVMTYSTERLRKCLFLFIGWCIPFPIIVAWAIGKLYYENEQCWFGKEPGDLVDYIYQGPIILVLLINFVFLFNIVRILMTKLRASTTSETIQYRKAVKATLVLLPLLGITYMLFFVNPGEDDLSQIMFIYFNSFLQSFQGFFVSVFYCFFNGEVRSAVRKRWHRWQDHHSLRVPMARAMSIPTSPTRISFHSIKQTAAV
The experiment in a line: CRF2R agonist activity (EC50, Emax), called comparative CRF binding. Format: cell-based. In a few lines: (§1)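 Receptor activation was followed through cAMP, measured in lysates or by a CRE-linked reporter, after peptide or vehicle exposure. Cells carried a single CRF receptor subtype, CRF1R or CRF2R; where both were present, background from the non-target receptor was subtracted.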

In another test the target is T2, CRF1R (Homo sapiens, UniProt P34998).
T2 sequence (P34998 24-415): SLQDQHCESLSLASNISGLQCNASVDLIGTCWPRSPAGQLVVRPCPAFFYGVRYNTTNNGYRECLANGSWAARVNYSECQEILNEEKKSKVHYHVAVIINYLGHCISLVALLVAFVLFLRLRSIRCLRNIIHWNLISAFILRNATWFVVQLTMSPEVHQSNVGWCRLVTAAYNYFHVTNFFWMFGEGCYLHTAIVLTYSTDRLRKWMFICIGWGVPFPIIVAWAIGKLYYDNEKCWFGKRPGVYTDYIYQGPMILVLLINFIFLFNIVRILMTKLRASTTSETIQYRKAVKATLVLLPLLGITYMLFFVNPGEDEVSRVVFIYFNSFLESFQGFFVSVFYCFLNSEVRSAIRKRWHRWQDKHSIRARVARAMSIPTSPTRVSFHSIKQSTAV
The experiment in a line: CRF1R agonist activity (EC50, Emax), called comparative CRF binding. Format: cell-based. The gist of the method:
as §1

`CC[C@H](C)[C@H](NC(=O)[C@@H](NC(=O)[C@H](CC(=O)O)NC(=O)[C@H](CC(C)C)NC(=O)[C@H](CC(C)C)NC(=O)[C@H](CC(C)C)NC(=O)[C@H](CCCNC(=N)N)NC(=O)[C@H](CC(N)=O)NC(=O)[C@H](CC(N)=O)NC(=O)[C@H](C)NC(=O)[C@H](C)NC(=O)[C@H](CCC(N)=O)NC(=O)[C@H](CCC(N)=O)NC(=O)[C@H](CCCCN)NC(=O)[C@H](CCC(=O)O)NC(=O)[C@H](CCCCN)NC(=O)[C@H](CCC(=O)O)NC(=O)[C@H](CCC(N)=O)NC(=O)[C@H](CCCCN)NC(=O)[C@H](CCC(=O)O)NC(=O)[C@@H](NC(=O)[C@H](CCC(=O)O)NC(=O)[C@@H](NC(=O)[C@H](CCSC)NC(=O)[C@H](CCCCN)NC(=O)[C@H](CCCNC(=N)N)NC(=O)[C@H](CC(C)C)NC(=O)[C@H](CC(C)C)NC(=O)[C@H](C)NC(=O)[C@H](Cc1ccc(O)cc1)NC(=O)[C@@H]1CCCN1C(=O)[C@H](CC(C)C)NC(=O)[C@H](CC(=O)O)NC(=O)[C@@H](NC(=O)[C@H](CO)NC(=O)[C@@H](NC(=O)[C@@H]1CCCN1C(=O)[C@@H]1CCCN1C(=O)CNC(=O)[C@@H]1CCC(=O)N1)[C@@H](C)CC)[C@@H](C)CC)[C@@H](C)CC)[C@@H](C)CC)[C@@H](C)O)C(N)=O` [compound 309]: the pEC50 is 8.26 on CRF2R and 6.97 at CRF1R.

Turning to `CC[C@H](C)[C@H](NC(=O)[C@@H](NC(=O)[C@H](CC(=O)O)NC(=O)[C@H](CC(C)C)NC(=O)[C@H](CC(C)C)NC(=O)[C@H](CC(C)C)NC(=O)[C@H](C)NC(=O)[C@H](CC(N)=O)NC(=O)[C@H](CC(N)=O)NC(=O)[C@H](C)NC(=O)[C@H](C)NC(=O)[C@H](CCC(N)=O)NC(=O)[C@H](CCC(N)=O)NC(=O)[C@H](CCCCN)NC(=O)[C@H](CCC(=O)O)NC(=O)[C@H](CCCCN)NC(=O)[C@H](CCC(=O)O)NC(=O)[C@H](CCC(N)=O)NC(=O)[C@H](CCCCN)NC(=O)[C@H](CCC(=O)O)NC(=O)[C@@H](NC(=O)[C@H](CCC(=O)O)NC(=O)[C@@H](NC(=O)[C@@H](NC(=O)[C@H](CCCCN)NC(=O)[C@H](CCCNC(=N)N)NC(=O)[C@H](CC(C)C)NC(=O)[C@H](CC(C)C)NC(=O)[C@H](Cc1c[nH]c2ccccc12)NC(=O)[C@H](Cc1ccc(O)cc1)NC(=O)[C@@H]1CCCN1C(=O)[C@H](CC(C)C)NC(=O)[C@H](CC(=O)O)NC(=O)[C@@H](NC(=O)[C@H](CO)NC(=O)[C@@H](NC(=O)[C@@H]1CCCN1C(=O)[C@@H]1CCCN1C(=O)CNC(=O)[C@@H]1CCC(=O)N1)[C@@H](C)CC)[C@@H](C)CC)C(C)C)[C@@H](C)CC)[C@@H](C)CC)[C@@H](C)O)C(N)=O` [compound 311], the figures for the pEC50 at CRF2R and at CRF1R were 7.93 and no more than 6.00, respectively.

Turning to `CC[C@H](C)[C@H](NC(=O)[C@H](CCCNC(=N)N)NC(=O)[C@H](C)NC(=O)[C@H](CC(N)=O)NC(=O)[C@@H](NC(=O)[C@@H](NC(=O)[C@H](C)NC(=O)[C@H](CCC(N)=O)NC(=O)[C@H](CCC(N)=O)NC(=O)[C@H](CCCCN)NC(=O)[C@H](CCC(=O)O)NC(=O)[C@H](CCCCN)NC(=O)[C@H](CCC(=O)O)NC(=O)[C@H](CCC(N)=O)NC(=O)[C@H](CCCCN)NC(=O)[C@H](CCC(=O)O)NC(=O)[C@@H](NC(=O)[C@H](CCC(=O)O)NC(=O)[C@@H](NC(=O)[C@@H](NC(=O)[C@H](CCCCN)NC(=O)[C@H](CCCNC(=N)N)NC(=O)[C@H](CC(C)C)NC(=O)[C@H](CC(C)C)NC(=O)[C@H](CCC(N)=O)NC(=O)[C@H](CC(C)C)NC(=O)[C@@H]1CCCN1C(=O)[C@H](CC(C)C)NC(=O)[C@H](CC(=O)O)NC(=O)[C@@H](NC(=O)[C@H](CO)NC(=O)[C@@H](NC(=O)[C@@H]1CCCN1C(=O)[C@@H]1CCCN1C(=O)CNC(=O)[C@@H]1CCC(=O)N1)[C@@H](C)CC)[C@@H](C)CC)C(C)C)[C@@H](C)CC)[C@@H](C)CC)[C@@H](C)O)[C@@H](C)O)C(=O)N[C@@H](CC(C)C)C(=O)N[C@@H](C)C(=O)N[C@@H](CCCNC(=N)N)C(=O)N[C@H](C(N)=O)C(C)C` [compound 320], the figures for the pEC50 on CRF2R and at CRF1R were 7.72 and 6.14, respectively.

On to `CC[C@H](C)[C@H](NC(=O)[C@H](CCC(=O)O)NC(=O)[C@@H](NC(=O)[C@@H](NC(=O)[C@H](CCCCN)NC(=O)[C@H](CCCNC(=N)N)NC(=O)[C@H](CC(C)C)NC(=O)[C@H](CC(C)C)NC(=O)[C@H](CCC(N)=O)NC(=O)[C@H](Cc1ccccc1)NC(=O)[C@@H]1CCCN1C(=O)[C@H](CC(C)C)NC(=O)[C@H](CC(=O)O)NC(=O)[C@@H](NC(=O)[C@H](CO)NC(=O)[C@@H](NC(=O)[C@@H]1CCCN1C(=O)[C@@H]1CCCN1C(=O)CNC(=O)[C@@H]1CCC(=O)N1)[C@@H](C)CC)[C@@H](C)CC)[C@@H](C)O)[C@@H](C)CC)C(=O)N[C@@H](CCC(=O)O)C(=O)N[C@@H](CCCCN)C(=O)N[C@@H](CCC(N)=O)C(=O)N[C@@H](CCC(=O)O)C(=O)N[C@@H](CCCCN)C(=O)N[C@@H](CCC(=O)O)C(=O)N[C@@H](CCCCN)C(=O)N[C@@H](CCC(N)=O)C(=O)N[C@@H](CCC(N)=O)C(=O)N[C@@H](C)C(=O)N[C@H](C(=O)N[C@H](C(=O)N[C@@H](CC(N)=O)C(=O)N[C@@H](C)C(=O)N[C@@H](CCCNC(=N)N)C(=O)N[C@@H](CC(C)C)C(=O)N[C@@H](CC(C)C)C(=O)N[C@@H](CC(=O)O)C(=O)N[C@@H](CCCNC(=N)N)C(=O)N[C@H](C(N)=O)C(C)C)[C@@H](C)O)[C@@H](C)O` [compound 321], for which the pEC50 at CRF2R was 7.71; on CRF1R it was no more than 6.00.

Take `CC[C@H](C)[C@H](NC(=O)[C@@H](NC(=O)[C@H](C)NC(=O)[C@H](CC(C)C)NC(=O)[C@H](CC(C)C)NC(=O)[C@H](CC(C)C)NC(=O)[C@H](C)NC(=O)[C@H](CC(N)=O)NC(=O)[C@H](CC(N)=O)NC(=O)[C@H](C)NC(=O)[C@H](C)NC(=O)[C@H](CCC(N)=O)NC(=O)[C@H](CCC(N)=O)NC(=O)[C@H](CCCCN)NC(=O)[C@H](CCC(=O)O)NC(=O)[C@H](CCCCN)NC(=O)[C@H](CCC(=O)O)NC(=O)[C@H](CCC(N)=O)NC(=O)[C@H](CCCCN)NC(=O)[C@H](CCC(=O)O)NC(=O)[C@@H](NC(=O)[C@H](CCC(=O)O)NC(=O)[C@@H](NC(=O)[C@@H](NC(=O)[C@H](CCCCN)NC(=O)[C@H](CCCNC(=N)N)NC(=O)[C@H](CC(C)C)NC(=O)[C@H](CC(C)C)NC(=O)[C@H](CCC(N)=O)NC(=O)[C@H](Cc1ccccc1)NC(=O)[C@@H]1CCCN1C(=O)[C@H](CC(C)C)NC(=O)[C@H](CC(=O)O)NC(=O)[C@@H](NC(=O)[C@H](CO)NC(=O)[C@@H](NC(=O)[C@@H]1CCCN1C(=O)[C@@H]1CCCN1C(=O)CNC(=O)[C@@H]1CCC(=O)N1)[C@@H](C)CC)[C@@H](C)CC)C(C)C)[C@@H](C)CC)[C@@H](C)CC)[C@@H](C)O)C(N)=O` [compound 352]: the pEC50 at CRF2R (read-out: CRF2R EC50) is 8.08; at CRF1R (read-out: CRF1R EC50), 6.11.
